Among the data in PubChem BioAssay AID602410 (Johns Hopkins Ion Channel Center, 2012) are outcome and B-score values, retold here.

Sequences of proteins named here, by UniProt entry; tags and fusion partners are left off.
UniProt O14649, whole entry: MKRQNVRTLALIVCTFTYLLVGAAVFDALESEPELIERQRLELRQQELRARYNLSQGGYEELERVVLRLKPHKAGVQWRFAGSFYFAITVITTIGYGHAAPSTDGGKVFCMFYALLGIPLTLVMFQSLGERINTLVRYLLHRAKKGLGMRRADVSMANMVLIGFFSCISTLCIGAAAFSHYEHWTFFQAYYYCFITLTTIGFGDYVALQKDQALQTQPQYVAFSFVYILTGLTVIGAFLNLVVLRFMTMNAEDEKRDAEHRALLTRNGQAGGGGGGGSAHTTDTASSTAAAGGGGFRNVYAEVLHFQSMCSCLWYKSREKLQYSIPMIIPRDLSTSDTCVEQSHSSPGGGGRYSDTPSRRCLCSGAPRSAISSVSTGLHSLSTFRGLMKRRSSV

The structures appear in SMILES notation. The list shows a part of the results, in another mix than the full data. Calls of active or inactive are those of the source.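 The calls were made as follows: active = B-score under library mean minus 4 SD, starting fluorescence ratio at most library mean plus 5 SD; inactive = the rest.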

The test deals with Potassium channel subfamily K member 3 (Homo sapiens) (UniProt O14649). Nature of the test: blockers of TASK1 two-pore potassium channel – CHO cells, FluxOR thallium flux, B-score, primary screen (AID 602410).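 As to B-score: more negative B-score means stronger inhibition of thallium flux through KCNK3.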 The conditions noted are these: CHO-KCNK3 thallium flux, FluxOR fluorescence, at 10 µM; hits give low values.
As for `Fc1ccccc1NC1CCN(Cc2ccccc2)CC1`, the result was inactive. Same read-out and setting: the same measure for `Cc1ccc(C(=O)NCC2(N3CCCCC3)CCCCC2)o1`: “inactive”; for `Cc1ccc(NC2(C#N)CCN(Cc3ccccc3)CC2)cc1`: “inactive”. Regarding `CC(=O)N(c1ccccc1)C1CCNCC1`, the result was inactive. `COc1cc(OC)cc(C(=O)NCC2(N3CCCCC3)CCCCC2)c1`: the call was inactive. On to `CN(C)c1ccc(C(=O)NCC2(N3CCCCC3)CCCCC2)cc1`, for which the result was inactive. Turning to `Cn1c(=O)[nH]cc(N(CCCl)CCCl)c1=O`, the outcome was inactive. Regarding `O=C(NCC1(N2CCCCC2)CCCCC1)c1ccco1`, the call was inactive.

Take `CCN1CCC(Nc2cccc(F)c2)CC1`: the call was inactive.

As for `Cc1ccccc1NC1(C#N)CCN(Cc2ccccc2)CC1`, the compound was classed as inactive. As for `O=C(O)C1(Nc2ccccc2)CCN(Cc2ccccc2)CC1`, the result was inactive. Take `CC(C)(C)OC(=O)N1CCC(Nc2ccccc2)CC1`: the result was inactive.

As for `CCCOc1ccc(C(=O)NCC2(N(C)C)CCCCC2)cc1`, the outcome was inactive. As for `CN1CCC(Nc2ccc(F)c(Cl)c2)CC1`, the call was inactive. Same read-out and setting: the same measure for `CCOc1ncccc1C(=O)NCC1(N2CCOCC2)CCCCC1`: “inactive”. Regarding `CN1CCC(Nc2ccc(Cl)cc2)CC1`, the outcome was inactive. Turning to `COc1cc(OC)cc(C(=O)NCC2(N3CCOCC3)CCCCC2)c1`, the call was inactive. `COc1cccc(C(=O)N(c2cc(C)cc(C)c2)C2CCN(C(=O)OC(C)(C)C)CC2)c1`: the call was inactive. With `CCC(CO)(C(=O)OC1CN2CCC1CC2)c1ccccc1` (centres undefined), the compound was classed as inactive. The same measure, in the same setting: the same measure for `COc1ccc(C(=O)NCC2(N3CCOCC3)CCCCC2)cc1OC`: “inactive”. `COc1cc(C(=O)NCC2(N3CCOCC3)CCCCC2)cc(OC)c1C`: the compound was called inactive. `O=C(NCC1(N2CCOCC2)CCCCC1)c1cc(Br)ccc1Cl`: the compound was called inactive. For the compound `O=C(OC1CN2CCC1CC2)C1c2ccccc2C=Cc2ccccc21` (centres undefined), the compound was called inactive. Take `CCOC(=O)N1CCC(Nc2ccc(C)cc2)CC1`: the compound was classed as inactive. With `N/C(=N\O)c1c(N)no[n+]1[O-]`, the compound was classed as inactive. Regarding `N#Cc1ccc(C(=O)NCC2(N3CCCCC3)CCCCC2)cc1`, the result was inactive.

As to `CC(C)(C)OC(=O)N1CCC(N(C(=O)c2ccccc2)c2ccc(Cl)cc2)CC1`, the B-score was active: -14.

For `CN(C)C1(CNC(=O)c2cccc(C#N)c2)CCCCC1`, the compound was classed as inactive.

`CCCN1CCC(Nc2cc(OC)cc(OC)c2)CC1`: the compound was classed as inactive. Take `Cc1cc(N(CCCl)CCCl)ccc1C=O`: the call was inactive. Still for that read-out and setting: for `c1ccc(CN2CCC(Nc3ccccc3)CC2)cc1` the value was “inactive”. Take `N#CC1(Nc2ccccc2)CCN(CCc2ccccc2)CC1`: the compound was called inactive.

For `CCN1CCC(Nc2ccc(Cl)cc2)CC1`, the outcome was inactive.

Consider `O=C(NCC1(N2CCCCC2)CCCCC1)c1cccc([N+](=O)[O-])c1`, for which the compound was classed as inactive.

Regarding `CSc1ccc(C(=O)NCC2(N3CCOCC3)CCCCC2)cc1`, the outcome was inactive. For `O=C(NCC1(N2CCCCC2)CCCCC1)c1ccc(OC(F)F)cc1`, the result was inactive. On to `COc1cc(C(=O)NCC2(N3CCCCC3)CCCCC2)ccc1OC(F)F`, for which the compound was classed as inactive. The same measure, in the same setting: the same measure for `O=C(NCC1(N2CCOCC2)CCCCC1)c1cc(=O)[nH]c2ccccc12`: “inactive”. As for `CN1CCN(CCOC(=O)C(O)(c2ccccc2)c2ccccc2)CC1`, the compound was called inactive. Regarding `COc1ccc(NC2CCN(C(=O)OC(C)(C)C)CC2)cc1`, the compound was called inactive. As for `CC(C)c1ccc(C(=O)NCC2(N3CCOCC3)CCCCC2)cc1`, the outcome was inactive. On to `O=C(NCC1(N2CCCCC2)CCCCC1)c1cccc(C(F)(F)F)c1`, for which the compound was called inactive. For `O=C(NCC1(N2CCOCC2)CCCCC1)c1cc(F)c(F)cc1Cl`, the compound was called inactive.

`COc1cc(OC)c(C(=O)NCC2(N(C)C)CCCCC2)cc1OC`: the result was inactive. Still for that read-out and setting: the same measure for `CC(C)c1ccc(NC2CCN(C(=O)OC(C)(C)C)CC2)cc1`: “inactive”; for `CN(C)c1cccc(C(=O)NCC2(N3CCCCC3)CCCCC2)c1`: “inactive”. `COc1ccc(CN(CCCl)CCCl)cc1Cl`: the compound was classed as inactive.

Turning to `CCCOc1ccc(C(=O)NCC2(N(C)C)CCCCC2)cc1OC`, the compound was classed as inactive.

For `CN1CCC(Nc2cccc(F)c2)CC1`, the compound was classed as inactive.

`O=C(NCC1(N2CCCCC2)CCCCC1)c1cncc(Br)c1`: the compound was called inactive. Regarding `Cc1cccc(NC2(C#N)CCN(Cc3ccccc3)CC2)c1`, the outcome was inactive. With `CSc1ccccc1C(=O)NCC1(N2CCCCC2)CCCCC1`, the compound was classed as inactive.

As to `COc1ccc(C(=O)NCC2(N3CCCCC3)CCCCC2)c(OC)c1OC`, the call was inactive.

As for `CC(C)(C)OC(=O)N1CCC(N(C(=O)c2ccccc2)c2ccc(F)cc2)CC1`, the B-score was active: -9.79. Regarding `COc1ccc(C(=O)NCC2(N3CCCCC3)CCCCC2)cc1`, the outcome was inactive.

As for `O=C(NCC1(N2CCCCC2)CCCCC1)c1cccs1`, the outcome was inactive. Regarding `O=C(NCC1(N2CCCCC2)CCCCC1)c1ccc(=O)[nH]c1`, the compound was called inactive. Turning to `COc1ccc(Cl)cc1C(=O)NCC1(N2CCOCC2)CCCCC1`, the outcome was inactive. Still for that read-out and setting: for `O=C(NCC1(N2CCCCC2)CCCCC1)c1ccc(Cl)s1` the value was “inactive”; for `N#CC1(Nc2ccccc2)CCN(Cc2ccccc2)CC1`, “inactive”; for `O=C(OC1CN2CCC1CC2)C1c2ccccc2Oc2ccccc21` (centres undefined), “inactive”.

As for `CCOC(=O)N1CCC(Nc2ccc(OC)cc2)CC1`, the compound was called inactive. `Cc1cc(C)cc(N(C(=O)c2ccccc2)C2CCN(C(=O)OC(C)(C)C)CC2)c1`: the B-score was active: -9.75. With `O=C(NCC1(N2CCCCC2)CCCCC1)c1ccc(Cl)nc1`, the compound was classed as inactive. As for `O=C(NCC1(N2CCOCC2)CCCCC1)c1cc2ccccc2o1`, the result was inactive. The same measure, in the same setting: the same measure for `COc1ccc(NC2CCN(CCc3ccccc3)CC2)c(OC)c1`: “inactive”; for `CCOC(=O)N1CCC(Nc2ccc(F)cc2)CC1`: “inactive”.

Take `O=P1(N(CCCl)CCCl)SCCCS1`: the call was inactive. The same measure, in the same setting: for `CCCCOc1ccc(C(=O)NCC2(N3CCOCC3)CCCCC2)cc1` the value was “inactive”; for `O=C(NCC1(N2CCCCC2)CCCCC1)c1ccc(F)cc1`, “inactive”; for `O=C1CCN(Cc2ccccc2)CC1`, “inactive”. On the same count and under the same terms, the same measure for `CCOc1ccc(C)cc1CN(CCCl)CCCl`: “inactive”; for `CCOC(=O)N1CCC(Nc2cccc(C)c2)CC1`: “inactive”; for `COc1cc(C(=O)NCC2(N(C)C)CCCCC2)ccc1OC(F)F`: “inactive”.
